Source: patent US20230183331A1

Legend:
[1] = biological target: IL-2 receptor (IL-2R) on primary pan T-cells from healthy donors (human) (UniProt P01589); assay: cell-based or functional assay
[2] = biological target: recombinant biotinylated TNFα (human) (UniProt P01375); assay: ELISA: conjugate coated on the plate, biotinylated human TNFα titrated (the concentration is that of TNFα), streptavidin-HRP detection, OD 450 nm
[3] = biological target: His-tagged human Fc gamma receptor I (FcγRI/CD64) (R&D, 1257-FC-050) (human) (UniProt P12314); assay: ELISA: antibody coated on the plate, His-tagged FcγRI titrated (the concentration is that of FcγRI), biotin anti-His antibody and streptavidin-HRP detection, OD 450 nm
[4] = biological target: recombinant biotinylated TNFα (human) (UniProt P01375); assay: ELISA: antibody coated on the plate, biotinylated human TNFα titrated (the concentration is that of TNFα), streptavidin-HRP detection, OD 450 nm

Row | CD4 con EC50 (nM), STAT5 phosphorylation [1] [nM] | CD8 EC50 (nM), STAT5 phosphorylation [1] [nM] | CD8 memory EC50 (nM), STAT5 phosphorylation [1] [nM] | CD8 naïve EC50 (nM), STAT5 phosphorylation [1] [nM] | Treg EC50 (nM), STAT5 phosphorylation [1] [nM] | EC50 (read off the curve) [2] [nM] | EC50 (read off the curve) [3] [nM] | EC50 (read off the curve) [4] [nM] | Substance
1 | 346 | 475 | 534 | 508 | 14.8 | – | – | – | Composition C (biosimilar Adalimumab conjugated to Composition AA, DAR1, linker at K248 of the Fc) (from UniProt P0DOX5 2-449; P0DOX7 1-214; P60568 21-153)
2 | – | – | – | – | – | 0.07 | – | – | Composition C (biosimilar Adalimumab conjugated to Composition AA, DAR1, linker at K248 of the Fc) (from UniProt P0DOX5 2-449; P0DOX7 1-214; P60568 21-153) (other; other documents disagree on this pair)
3 | 906 | 720 | 1000 | 1000 | 0.66 | – | – | – | Composition D (biosimilar Adalimumab conjugated to Composition AA, DAR2, linker at K248 of the Fc) (from UniProt P0DOX5 2-449; P0DOX7 1-214; P60568 21-153)
4 | – | – | – | – | – | – | 0.05 | 0.08 | biosimilar Adalimumab (antibody; other documents disagree on this pair)
